Consider two compounds from PubChem BioAssay (EPA / NIEHS).

The term AC50 denotes the concentration giving half of the maximal activity seen.

Only a part is listed here, and it is no random draw. Calls of active or inactive are those of the source. How the source made its calls: active means hit-call score of the fitted dose curve at least 0.9, where 1 is the maximum; inactive means score below 0.9.

Read-out in test [1]: Interleukin 2 (IL2), IL2 (gene 3558)
The test is described as follows: BSK_BT_xIL2: BioMAP Diversity Plus: BT Assay for Interleukin 2 (IL2) Biomarker Activity (AID 2284245). The following applies: primary human B cells with PBMC. The gist of the method: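 Secreted IL-2 was read by Luminex xMAP from B cells co-cultured with PBMC (human primary) 24 h post-dosing; activity was analysed as gain of signal relative to DMSO vehicle.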

Read-out in test [2]: Basic fibroblast growth factor (bFGF), FGF2 (gene 2247)
The test can be described thus: BSK_MyoF_bFGF: BioMAP Diversity Plus: MyoF Assay for Basic fibroblast growth factor (bFGF) Biomarker Activity (AID 2284246). Conditions: primary human lung fibroblasts. An outline of the steps: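 bFGF was measured by ELISA in primary human lung fibroblasts 24 h after chemical addition. Signal was analysed as positive-direction change relative to DMSO baseline.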

Read-out in test [3]: Collagen IV, COL4A1 (gene 1282)
The test is described as follows: BSK_MyoF_CollagenIV: BioMAP Diversity Plus: MyoF Assay for Collagen IV Biomarker Activity (AID 2284247). Conditions: primary human lung fibroblasts. An outline of the steps: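 Collagen IV quantified by ELISA in human lung fibroblast cultures 24 h after chemical treatment, with DMSO as baseline. Parallel SRB staining (0.1% SRB after TCA fixation, 560 nm) flags overt cytotoxicity.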

Read-out in test [4]: Plasminogen activator inhibitor-1 (PAI1), SERPINE1 (gene 5054)
The test can be described thus: BSK_MyoF_PAI1: BioMAP Diversity Plus: MyoF Assay for Plasminogen activator inhibitor-1 (PAI1) Biomarker Activity (AID 2284256). The following applies: primary human lung fibroblasts. On the procedure: BSK_MyoF is a cell-based, multiplexed-readout assay that uses lung fibroblasts, […], with measurements taken at 24 hours after chemical dosing in a microplate: 96-well plate.BSK_MyoF_PAI1 is an assay component measured in the BSK_MyoF assay. It measures PAI-1 antibody related to regulation of gene expression using ELISA technology.Data from the assay component BSK_MyoF_PAI1 was analyzed at the endpoint, BSK_MyoF_PAI1, in the positive analysis fitting direction relative to DMSO as the negative control and baseline of activity. Using a type of binding reporter, gain or loss-of-signal activity can be used to understand protein changes. […]
(§1) The levels of cell surface (or secreted, indicated by the prefix "s") biomarker endpoints were measured by ELISA. Overt cytotoxicity to cells in confluent adherent cultures (all systems other than the BT system) was assessed by measuring total protein levels using sulforhodamine B (SRB) staining in parallel cultures at the time of biomarker measurements, indicated as SRB endpoints. For proliferation assays for adherent cell types, individual cell types are cultured at sub-confluence and relative cell numbers quantified by SRB staining at time points optimized for each system (48 h: 3C and CASM3C systems; 72 h: BT and HDF3CGF systems; 96 h: SAg system). […] Plates were read after 6 h.

Read-out in test [5]: Interleukin-8 (IL8), CXCL8 (gene 3576)
The test can be described thus: BSK_MyoF_IL8: BioMAP Diversity Plus: MyoF Assay for Interleukin-8 (IL8) Biomarker Activity (AID 2284261). Conditions: primary human lung fibroblasts. An outline of the steps: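 In this multiplexed primary-cell system, fibroblasts from human lung are treated with chemicals, and IL-8 is detected by ELISA at 24 h, with DMSO serving as the negative reference.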

Read-out in test [6]: Decorin, DCN (gene 1634)
The test is described as follows: BSK_MyoF_Decorin: BioMAP Diversity Plus: MyoF Assay for Decorin Biomarker Activity (AID 2284265). The following applies: primary human lung fibroblasts. The gist of the method:
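Lung fibroblast cultures, 24 h chemical exposure. Decorin by ELISA, positive fitting direction, DMSO baseline.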

Test [7] is described as follows: BSK_MyoF_SRB: Viability Assessment in the BioMAP Diversity Plus: MyoF Assay (AID 2284267).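 Further: total protein by SRB absorbance in parallel cultures as cytotoxicity measure; cells assessed 24 h after compound addition.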 The following applies: primary human lung fibroblasts. The protocol: BSK_MyoF is a cell-based, multiplexed-readout assay that uses lung fibroblasts, […], with measurements taken at 24 hours after chemical dosing in a microplate: 96-well plate.BSK_MyoF_SRB is an assay component measured in the BSK_MyoF assay. It measures 0.1% sulforhodamine related to cell death using Sulforhodamine staining technology.Data from the assay component BSK_MyoF_SRB was analyzed at the endpoint, BSK_MyoF_SRB, in the positive analysis fitting direction relative to DMSO as the negative control and baseline of activity. Using a type of viability reporter, gain or loss-of-signal activity can be used to understand protein changes. […]
as §1

Read-out in test [8]: Matrix Metallopeptidase 1 (MMP1), MMP1 (gene 4312)
The test can be described thus: BSK_MyoF_MMP1: BioMAP Diversity Plus: MyoF Assay for Matrix Metallopeptidase 1 (MMP1) Biomarker Activity (AID 2284268). Conditions: primary human lung fibroblasts. The gist of the method:
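MMP1 measured by ELISA 24 h after dosing primary human lung fibroblasts; cytotoxicity checked in parallel cultures by sulforhodamine B total-protein staining read at 560 nm.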

Read-out in test [9]: TIMP metallopeptidase inhibitor 1 (TIMP1), TIMP1 (gene 7076)
The test is described as follows: BSK_MyoF_TIMP1: BioMAP Diversity Plus: MyoF Assay for TIMP metallopeptidase inhibitor 1 (TIMP1) Biomarker Activity (AID 2284269). Conditions: primary human lung fibroblasts. The gist of the method: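 ELISA read-out of TIMP-1 from primary human lung fibroblast cultures 24 h after compound dosing; gain of signal relative to DMSO vehicle baseline defines activity.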

The nature of test [10]: CCTE_Deisenroth_5AR_NBTE_donor: CCTE's 5alpha-reductase NanoBRET Target Engagement Assay […], Deisenroth Lab (AID 2284319). Conditions: actives raise or lower the signal. The gist of the method: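 HEK293T cells were reverse transfected with an SRD5A2-NanoLuc vector for 20 h, exposed to test chemical (8 points, 10 nM - 29.9 uM) for 3 h, then testosterone tracer for 2 h more. Donor luminescence (460 nm) was read; bidirectional fit versus DMSO.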

Regarding `Cc1ccc([N+](=O)[O-])c([N+](=O)[O-])c1`, the result in test [1], in test [3], in [6], in test [7] and in test [9] was inactive. The AC50 in test [2] is active: 0.591 µM; in test [4], active: 0.115 µM; in [5], active: 11.8 µM; in test [8], active: 20 µM.
In the case of `Cc1cccc([N+](=O)[O-])c1[N+](=O)[O-]`, the result in test [10] was inactive.
